What was measured:
[1] = Clearance in specific pathogen free-Sprague-Dawley rat at 5 mg/kg, iv measured upto 24 hrs; assay type: ADME, organism-based; conditions: in vivo
PC-12 = test: Antioxidant activity in H2O2-induced rat PC12 cells assessed as reduction in intracellular ROS level by measuring residual fluorescence intensity at 50 uM preincubated with compound for 24 hrs followed by H2O2 induction and measured after 2 hrs by DCFH-DA staining based flow cytometry analysis (reference value: 26.16%); assay type: functional; conditions: time 26 hrs
[2] = Apparent volume of distribution in specific pathogen free-Sprague-Dawley rat at 15 mg/kg, po measured upto 24 hrs; assay type: ADME, organism-based; conditions: in vivo
[3] = Half life in specific pathogen free-Sprague-Dawley rat at 5 mg/kg, iv measured upto 24 hrs; assay type: ADME, organism-based; conditions: in vivo
[4] = Acute toxicity in C57BL/6 mouse assessed as physical abnormalities at 200 mg/kg, ip administered every day for 1 week; assay type: organism-based; conditions: in vivo, 168 h, time 1 weeks
[5] = Clearance in specific pathogen free-Sprague-Dawley rat at 15 mg/kg, po measured upto 24 hrs; assay type: ADME, organism-based; conditions: in vivo
[6] = Apparent volume of distribution in specific pathogen free-Sprague-Dawley rat at 5 mg/kg, iv measured upto 24 hrs; assay type: ADME, organism-based; conditions: in vivo
[7] = Acute toxicity in C57BL/6 mouse assessed as mental abnormalities at 200 mg/kg, ip administered every day for 1 week; assay type: organism-based; conditions: in vivo, 168 h, time 1 weeks
[8] = AUC (0 to 24 hrs) in specific pathogen free-Sprague-Dawley rat at 15 mg/kg, po measured upto 24 hrs; assay type: ADME, organism-based; conditions: in vivo
[9] = Half life in specific pathogen free-Sprague-Dawley rat at 15 mg/kg, po measured upto 24 hrs; assay type: ADME, organism-based; conditions: in vivo
[10] = AUC (0 to 24 hrs) in specific pathogen free-Sprague-Dawley rat at 5 mg/kg, iv measured upto 24 hrs; assay type: ADME, organism-based; conditions: in vivo

With `NC(=O)Cc1nc2cc(OCc3ccc(F)cc3)ccc2[nH]1` the CL [1] was 10.3 mL/day/kg, the Activity (PC-12) was 13.24% and the Vz [2] was 1.07 L/kg. The t1/2 [3] was 1.16 h, the Activity [4] was “Non-Toxic” and the CL [5] was 4.56 mL/day/kg. The Vz [6] was 1.07 L/kg, the Activity [7] was “Non-Toxic” and the AUC [8] was 81937.8 ng·h/mL. For the same compound, the t1/2 [9] was 1.67 h and the AUC [10] was 11565.69 ng·h/mL.

— ChEMBL document CHEMBL5550170, “Discovery of novel benzimidazole derivatives as selective and reversible monoamine oxidase B inhibitors for Parkinson's disease treatment” (Eur J Med Chem, 2024)
